Results reported in patent publication US5036008A, “Antitumor antibiotic BU-3285T” (Bristol-Myers Company, priority 1990, dated 1991).

Tested on: B16 melanoma
Experiment: In vivo antitumor activity against B16 melanoma (Table 10)
Details: Q3D × 3

Row | SMILES | MST (median survival time) (1 mg/kg/day ip) [days] | MST (median survival time) (2 mg/kg/day ip) [days] | T/C (2 mg/kg/day ip, *2 significant, T/C ≥ 125%) [%] | Body wt. change on day 5 (0.1 mg/kg/day ip) | MST (median survival time) (0.1 mg/kg/day ip) [days] | T/C (0.1 mg/kg/day ip, significant if T/C ≥ 125%) [%] | Body wt. change on day 5 (0.3 mg/kg/day ip) | MST (median survival time) (0.3 mg/kg/day ip) [days] | T/C (0.3 mg/kg/day ip, significant if T/C ≥ 125%) [%] | Body wt. change on day 5 (1 mg/kg/day ip) | T/C (1 mg/kg/day ip, *2 significant, T/C ≥ 125%) [%] | Body wt. change on day 5 (3 mg/kg/day ip) [g] | MST (median survival time) (3 mg/kg/day ip) [days] | T/C (3 mg/kg/day ip, *2 significant, T/C ≥ 125%) [%] | Body wt. change on day 5 (10 mg/kg/day ip) | MST (median survival time) (10 mg/kg/day ip) [days] | T/C (10 mg/kg/day ip, *2 significant, T/C ≥ 125%) [%]
1 | CO[C@@]12[C@H](COC(N)=O)C3=C(C(=O)C(C)=C(N)C3=O)N1C[C@@H]1N[C@@H]12 [Mitomycin C, reference compound] | 23.0 | 34.5 | 203 |  |  |  |  |  |  |  |  |  |  |  |  |  | 
2 | CCCCC/C=C/C=C\C=C/C(O)C(C)C(C/C=C/C1OC(=O)C=CC1O)OS(=O)(=O)O (stereo not drawn) [BU-3285T] | 22.5 |  |  | +0.8 g | 18.5 | 109 | +0.3 g | 20.0 | 118 | +0.5 g | 132 | 0.0 | 26.5 | 156 | +0.5 g | 21.5 | 126
